Test system: HCAVSMCs

polymer cleared from cells within 5 days: ~ 90%
Substance: poly(propylacrylic acid) [PPAA]

Source: PMC6825215, “An anionic, endosome-escaping polymer to potentiate intracellular delivery of cationic peptides, biomacromolecules, and nanoparticles” (Nature Communications, 2019)
